Test results reported in ChEMBL document CHEMBL4831519, “Discovery of the first-in-class dual PPARδ/γ partial agonist for the treatment of metabolic syndrome” (Eur J Med Chem, 2021).
The source made the active and inactive calls. The rule behind the calls is not given here.

Tests used:
Format in all cases: functional, organism-based
[1] = test system: Mus musculus; assay: Antidiabetic activity in ob/ob mouse assessed as reduction in polyphagia by measuring increase in food consumption at 10 mg/kg, po administered once daily for 30 days and measured daily; conditions: time 30.0 day
[2] = test system: Mus musculus; assay: Improvement in glucose tolerance in high fat diet-fed C57BL/6 diabetic mouse model assessed as glucose lowering effect at 10 mg/kg, po administered once daily for 7 days and on day 7 treated at 30 mins prior to glucose challenge and measured up to 120 mins by blood glucose test; conditions: time 7.0 day
[3] = test system: Mus musculus; assay: Hepatoprotective activity in ob/ob mouse assessed as reduction in plasma alanine aminotransferase at 10 mg/kg, po administered once daily for 30 days; conditions: time 30.0 day
[4] = test system: Mus musculus; assay: Hepatoprotective activity in ob/ob mouse assessed as reduction in plasma aspartate transaminase at 10 mg/kg, po administered once daily for 30 days; conditions: time 30.0 day

SMILES: CN(CCOc1ccc(CC2SC(=O)NC2=O)cc1)c1ccccn1 (centres undefined) [ROSIGLITAZONE]
- Activity [1]: inactive
- Activity [2]: Active
- Activity [3]: Active
- Activity [4]: Active
